Test results reported in patent publication US20180237542A1.

Biological target: human TNF-α (human) (UniProt P01375)
Experiment: cell-based or functional assay

hu TNFa (pM) | hu TNFa Fold Change [fold] | Substance
16.8 | 0.116 | iPS: 377107 (bispecific antibody)
64.2 | 0.443 | iPS: 376715 (bispecific antibody)
27.5 | 0.19 | iPS: 376637 (bispecific antibody)
73.3 | 0.506 | iPS: 376830 (bispecific antibody)
49.1 | 0.339 | iPS: 376949 (bispecific antibody)
942 | 6.49 | iPS: 376605 (bispecific antibody)
80.4 | 0.554 | iPS: 376709 (bispecific antibody)
49.7 | 0.342 | iPS: 377077 (bispecific antibody)
96.5 | 0.666 | iPS: 376601 (bispecific antibody)
57.1 | 0.394 | iPS: 376955 (bispecific antibody)
30.8 | 0.212 | iPS: 376854 (bispecific antibody)

Continued, substance first:

Substance | hu TNFa (pM) | hu TNFa Fold Change [fold]
iPS: 377073 (bispecific antibody) | 36.8 | 0.254
iPS: 377200 (bispecific antibody) | 38.4 | 0.265
iPS: 376693 (bispecific antibody) | 29.5 | 0.203
iPS: 376862 (bispecific antibody) | 34.4 | 0.237
iPS: 376931 (bispecific antibody) | 26.8 | 0.185
iPS: 376629 (bispecific antibody) | 22.4 | 0.154
iPS: 377116 (bispecific antibody) | 15.2 | 0.105
iPS: 376683 (bispecific antibody) | 35.2 | 0.243
iPS: 376826 (bispecific antibody) | 80.8 | 0.557
iPS: 377193 (bispecific antibody) | 30.9 | 0.213
iPS: 377166 (bispecific antibody) | 17 | 0.117
